Literature values, collected in US11965892B2, “HLA-based methods and compositions and uses thereof” (BioNTech US Inc., priority 2017, dated 2024).

Conditions: more than 25 clinical trials; cited from earlier work

## poly-ICLC
  toxicity profile: relatively benign toxicity profile
